Measurements reported in patent US12247246B2, “Identification of inhibitors of TcpC and TIR NADase activity” (Washington University, priority 2017, dated 2025).

Tested on: NC(=O)c1ccc[n+]([C@@H]2O[C@H](COP(=O)([O-])OP(=O)(O)OC[C@H]3O[C@@H](n4cnc5c(N)ncnc54)[C@H](O)[C@@H]3O)[C@@H](O)[C@H]2O)c1
Assay: purified protein, by the assay type
Conditions: other: estimated, substrate NAD+, product ADPR, initial velocity/first 60 s, 25° C, pH 7.6

Staphylococcus aureus TirS-TIR, wild type TIR domain of TirS, SEQ ID NO:1 (Staphylococcus aureus subsp. aureus MSSA476)
Km: 490 µM | Vmax: 10 µM/min
